The chains behind the UniProt entries cited, without tags or fusion partners.
UniProt P50750, whole entry: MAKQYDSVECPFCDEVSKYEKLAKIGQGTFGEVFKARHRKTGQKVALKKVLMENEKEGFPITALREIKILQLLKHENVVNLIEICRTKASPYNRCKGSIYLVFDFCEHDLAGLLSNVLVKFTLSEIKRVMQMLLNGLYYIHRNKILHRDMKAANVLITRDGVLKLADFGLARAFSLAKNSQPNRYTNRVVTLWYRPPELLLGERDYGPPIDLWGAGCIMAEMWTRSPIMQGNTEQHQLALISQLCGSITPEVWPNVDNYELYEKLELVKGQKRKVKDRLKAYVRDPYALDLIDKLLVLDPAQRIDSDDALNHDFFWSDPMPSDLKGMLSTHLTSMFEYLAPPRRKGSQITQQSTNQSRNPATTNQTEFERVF
UniProt O60563, whole entry partner: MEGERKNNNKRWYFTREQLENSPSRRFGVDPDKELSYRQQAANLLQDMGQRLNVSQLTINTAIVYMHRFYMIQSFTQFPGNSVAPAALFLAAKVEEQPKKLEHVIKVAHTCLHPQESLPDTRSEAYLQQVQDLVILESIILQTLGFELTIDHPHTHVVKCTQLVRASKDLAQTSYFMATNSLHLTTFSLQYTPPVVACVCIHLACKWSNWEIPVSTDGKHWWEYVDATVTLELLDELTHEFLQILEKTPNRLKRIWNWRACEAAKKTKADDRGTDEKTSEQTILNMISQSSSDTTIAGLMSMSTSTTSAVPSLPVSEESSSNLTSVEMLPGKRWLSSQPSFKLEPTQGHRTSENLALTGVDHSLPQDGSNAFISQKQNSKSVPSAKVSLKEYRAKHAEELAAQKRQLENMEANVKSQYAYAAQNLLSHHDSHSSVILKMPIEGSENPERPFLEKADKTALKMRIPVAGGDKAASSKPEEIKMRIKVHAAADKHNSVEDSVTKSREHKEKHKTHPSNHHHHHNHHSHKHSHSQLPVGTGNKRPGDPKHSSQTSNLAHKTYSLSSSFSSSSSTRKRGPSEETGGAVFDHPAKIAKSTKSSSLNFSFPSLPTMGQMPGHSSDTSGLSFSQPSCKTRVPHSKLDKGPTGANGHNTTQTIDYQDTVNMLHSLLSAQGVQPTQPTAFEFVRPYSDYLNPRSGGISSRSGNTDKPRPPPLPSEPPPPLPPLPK

According to patent publication US8778951B2, “Heteroaryl compounds and their uses” (Novartis AG, priority 2009, dated 2014):

Target: Cdk9/cyclinT1 (Homo sapiens (Human), UniProt P50750)
Assay: Cdk9/CyclinT1 IMAP Protocol (fluorescence polarization kinase assay)
Assay type: biochemical
Details: read-out: CDK9 CYCLINT1 (IC50); Table 2; generated using one of the two Cdk9/cyclinT1 assays (IMAP or Alpha Screen), not specified which; unit inferred

Row | Compound | IC50 [pM]
1 | CC1(CN[C@H]2CC[C@H](Nc3cc(-c4ccc(F)c(NCC5(C#N)CCOCC5)n4)c(Cl)cn3)CC2)OCCO1 | 270
2 | CC1(CNc2nc(-c3cc(N[C@H]4CC[C@H](NCC5(C)OCCO5)CC4)ncc3Cl)ccc2F)CCOCC1 | 1000
